Laboratory results as given in patent publication US9163003B2, “4-piperidinyl compounds for use as tankyrase inhibitors” (NOVARTIS AG, priority 2011, dated 2015).

Sequences of proteins named here, by UniProt entry; tags and fusion partners are left off. Residues count along the entry.
UniProt Q9H2K2, 959-1164: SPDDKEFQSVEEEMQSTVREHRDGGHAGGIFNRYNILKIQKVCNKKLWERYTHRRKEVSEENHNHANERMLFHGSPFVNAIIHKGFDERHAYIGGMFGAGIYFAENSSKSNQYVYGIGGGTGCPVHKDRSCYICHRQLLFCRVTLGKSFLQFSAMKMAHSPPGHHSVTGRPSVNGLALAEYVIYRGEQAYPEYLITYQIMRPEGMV

Target: tankyrase 2 protein PARP domain, TNKS2P (GST-tagged) (Homo sapiens (Human), UniProt Q9H2K2)
Assay: TNKS2 autoparsylation (AP) biochemical assay, LC/MS detection of nicotinamide
Details: 20 nM enzyme, 250 μM NAD+, 60 min room temperature

Question: For `COc1ccc2c(c1)CC1(CCN(C3CCN(Cc4nc5c(c(=O)[nH]4)COCC5)C3=O)CC1)C2=O` (centres unmarked) [Example 15, 2-((3-(5-methoxy-1-oxo-1,3-dihydrospiro[indene-2,4′-piperidine]-1′-yl)-2-oxopyrrolidin-1-yl)methyl)-7,8-dihydro-3H-pyrano[4,3-d]pyrimidin-4(5H)-one], which IC50 is on record?
Answer: The IC50 was 18 ± 2 nM.

Question: With `COc1ccc(C(=O)C2CCN(C3CCN(CC(=O)Nc4nnc5n4CCS5)C3=O)CC2)cc1` (centres unmarked) [Example 32, N-(5,6-dihydrothiazolo[2,3-c][1,2,4]triazol-3-yl)-2-(3-(4-(4-methoxybenzoyl)piperidin-1-yl)-2-oxopyrrolidin-1-yl)acetamide] as the compound, how does the IC50 read?
Answer: The IC50 was 21 ± 1 nM.
